Data from patent US12617784B2, “AKT inhibitor” (Nanjing Chia Tai Tianqing Pharmaceutical Co., Ltd., priority 2019, dated 2026).

The chains behind the UniProt entries cited, without tags or fusion partners.
UniProt Q9Y243, whole entry: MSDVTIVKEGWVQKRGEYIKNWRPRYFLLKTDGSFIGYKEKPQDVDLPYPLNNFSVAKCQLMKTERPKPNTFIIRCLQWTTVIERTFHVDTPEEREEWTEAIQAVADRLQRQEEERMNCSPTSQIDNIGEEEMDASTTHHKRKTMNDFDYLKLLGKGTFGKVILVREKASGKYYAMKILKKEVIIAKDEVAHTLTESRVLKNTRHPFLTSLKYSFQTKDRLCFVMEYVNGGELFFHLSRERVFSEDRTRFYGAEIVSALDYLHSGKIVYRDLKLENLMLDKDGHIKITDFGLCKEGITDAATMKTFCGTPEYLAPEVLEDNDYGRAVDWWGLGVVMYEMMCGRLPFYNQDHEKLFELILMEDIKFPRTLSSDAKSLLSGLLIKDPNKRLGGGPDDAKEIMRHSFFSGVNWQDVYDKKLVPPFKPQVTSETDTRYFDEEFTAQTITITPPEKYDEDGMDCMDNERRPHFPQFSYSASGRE
UniProt P31749, whole entry: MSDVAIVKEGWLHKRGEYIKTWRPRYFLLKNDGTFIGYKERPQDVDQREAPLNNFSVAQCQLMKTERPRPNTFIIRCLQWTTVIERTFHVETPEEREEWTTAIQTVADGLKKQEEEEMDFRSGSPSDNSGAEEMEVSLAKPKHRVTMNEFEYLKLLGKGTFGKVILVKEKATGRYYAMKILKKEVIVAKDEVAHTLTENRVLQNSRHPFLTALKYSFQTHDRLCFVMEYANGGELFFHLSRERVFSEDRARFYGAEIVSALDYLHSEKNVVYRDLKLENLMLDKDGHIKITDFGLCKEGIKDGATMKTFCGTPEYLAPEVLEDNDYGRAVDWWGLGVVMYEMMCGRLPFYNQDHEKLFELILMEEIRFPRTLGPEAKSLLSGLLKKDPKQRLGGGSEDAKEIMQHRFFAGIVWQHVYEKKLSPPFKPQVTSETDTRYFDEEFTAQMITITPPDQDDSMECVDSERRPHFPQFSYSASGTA
UniProt P31751, whole entry: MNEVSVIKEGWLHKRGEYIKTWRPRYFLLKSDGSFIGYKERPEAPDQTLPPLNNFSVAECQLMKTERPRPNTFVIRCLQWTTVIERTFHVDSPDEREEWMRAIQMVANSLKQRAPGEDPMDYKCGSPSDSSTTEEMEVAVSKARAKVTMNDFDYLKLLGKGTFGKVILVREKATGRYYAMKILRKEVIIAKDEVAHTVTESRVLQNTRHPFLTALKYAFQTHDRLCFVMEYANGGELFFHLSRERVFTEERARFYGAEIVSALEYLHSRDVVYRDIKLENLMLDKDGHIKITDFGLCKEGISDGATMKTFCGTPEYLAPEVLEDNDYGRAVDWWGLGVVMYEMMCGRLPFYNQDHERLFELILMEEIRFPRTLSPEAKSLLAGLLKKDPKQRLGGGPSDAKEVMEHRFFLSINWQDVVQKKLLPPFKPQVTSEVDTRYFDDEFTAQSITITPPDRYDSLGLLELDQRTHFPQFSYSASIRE

How the values were obtained:
Type in all cases: biochemical
AKT3 = AKT3 (Homo sapiens, UniProt Q9Y243); assay: In vitro enzyme activity test (HTRF kinEASE TK), AKT3; conditions: read-out: AKT3 enzyme activity IC50, enzyme 0.3 ng/well, reaction 50 min
AKT1 = AKT1 (Homo sapiens, UniProt P31749); assay: In vitro enzyme activity test (HTRF kinEASE TK), AKT1; conditions: read-out: AKT1 enzyme activity IC50, ATP 2 μM, enzyme 0.6 ng/well, reaction 50 min
AKT2 = AKT2 (Homo sapiens, UniProt P31751); assay: In vitro enzyme activity test (HTRF kinEASE TK), AKT2; conditions: read-out: AKT2 enzyme activity IC50, ATP 20 μM, enzyme 0.1 ng/well, reaction 50 min

IC50 (AKT3): 1.1 nM
IC50 (AKT1): 40 nM
IC50 (AKT2): 227 nM
SMILES: CC(C)NC[C@@H](C(=O)N1C2CCC1CN(c1ncnc3c1N(CC#N)CC(=O)N3)C2)c1ccc(Cl)cc1
